{"source": "paper PMC5437200", "about": "“Ionic liquids for the passive sampling of sulfonamides from water—applicability and selectivity study” (Analytical and Bioanalytical Chemistry, 2017)", "key": {"[1]": {"assay": "ionization degrees of sulfonamides in the donor solution (calculated)", "assay_type": "physicochemical", "conditions": "initial pH 5.64; calculated using equations in ref 39"}, "[2]": {"assay": "octanol-water shake experiment for logKOW and logDOW", "assay_type": "physicochemical"}}, "data": [{"substance": "sulfadiazine [SDZ]", "values": [{"measurement": "α2 ionization degree", "setting": "[1]", "value": 100.0, "unit": "%"}, {"measurement": "α3 ionization degree (negatively charged form)", "setting": "[1]", "value": 12.1, "unit": "%"}, {"measurement": "LogD OW pH 5.6 (exp)", "setting": "[2]; n-octanol/ultrapure water pH 5.6, room temperature", "value": "−0.39"}, {"measurement": "LogK OW (exp)", "setting": "[2]; n-octanol/ultrapure water, room temperature", "value": "−0.34"}]}]}
